Experimental data reported in patent US20110269759A1, “PYRIMIDINE COMPOUNDS AS DELTA OPIOID RECEPTOR MODULATORS” (priority 2009, published 2011).
pEC50: −log10 of the molar value.

The chains behind the UniProt entries cited, without tags or fusion partners. Where a name states a change or a piece, a line headed by the entry shows the natural chain unless it says otherwise.
UniProt P32300, whole entry: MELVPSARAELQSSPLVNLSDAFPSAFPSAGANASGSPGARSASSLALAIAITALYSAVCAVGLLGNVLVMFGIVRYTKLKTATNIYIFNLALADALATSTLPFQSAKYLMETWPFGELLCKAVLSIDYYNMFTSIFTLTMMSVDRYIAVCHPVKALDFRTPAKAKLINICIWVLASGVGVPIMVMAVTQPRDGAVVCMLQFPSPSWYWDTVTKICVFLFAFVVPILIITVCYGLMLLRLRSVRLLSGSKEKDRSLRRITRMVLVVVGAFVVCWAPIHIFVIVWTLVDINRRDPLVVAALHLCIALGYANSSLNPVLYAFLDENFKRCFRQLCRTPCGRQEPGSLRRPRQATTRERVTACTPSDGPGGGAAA

Target: δ-opioid receptor (Mus musculus, UniProt P32300)
Test: [35S]GTPγS δ-opioid receptor functional assay (EC50, relative efficacy, % inhibition)
Type: biochemical
Parameters: NG108-15 cell membranes were purchased from Applied Cell Sciences (Rockville, Md.)

Compound	pEC50
COc1ccc(Oc2cc(-c3ccccc3)ccc2NC[C@@H]2CCCN2)cc1 [Cpd 35, (S)-[3-(4-Methoxy-phenoxy)-biphenyl-4-yl]-pyrrolidin-2-ylmethyl-amine]	5.84
CNCCNc1ccc(Oc2ccc(OC)cc2)cc1Oc1ccc(OC)cc1 [Cpd 63, N-[2,4-Bis-(4-methoxy-phenoxy)-phenyl]-N′-methyl-ethane-1,2-diamine]	5.51
